Values quoted from earlier work as cited in US6960597B2, “Aza-bridged-bicyclic amino acid derivatives as α4 integrin antagonists” (Orth-McNeil Pharmaceutical, Inc., priority 2000, dated 2005).

Tests used:
[1] = tested on: eosinophilia and airway hyperresponsiveness; conditions: animal models of asthma; cited from earlier work
[2] = tested on: airway responses following antigen challenge; conditions: allergic sheep; pre-treatment, 3 mg nebulized dose; cited from earlier work

Cc1ccccc1NC(=O)Nc1ccc(CC(=O)N[C@@H](CC(C)C)C(=O)N[C@@H](CC(=O)O)C(=O)N[C@H](C(=O)N2CCC[C@H]2C(=O)O)C(C)C)cc1
eosinophilia and airway hyperresponsiveness [1]: inhibits
development of nonspecific airway hyperresponsiveness to carbachol [2]: prevented
early and late airway responses following antigen challenge [2]: inhibited
